Data as given in US20050123936A1, “Method, composition, and kit to design, evaluate, and/or test compounds that modulate regulatory factor binding to nucleic acids” (priority 2003, published 2005).

Experiment: Solubility of linker compounds
Assay type: physicochemical
Details: compared with compounds bearing the additional lysine residue
Source text: The propyl end of the linker projects off the N-methylpyrrole of the anchor moiety in each case. This arrangement is sufficient to project the test compound over the minor groove and position it adjacent to the major groove where Exd would bind. The eight varying linkers range from ˜33 Å in the case of the PEG linker to ˜2.5 Å in the case of the lysine linker. Linkers 1-5 and 8 bear an additional lysine residue at the C-terminus of their YPWM hook. This residue is often seen in hooks in various Hox proteins, in our case we treat it as an additional linker residue. The lysine also improves the solubility of these rather hydrophobic compounds. […] Each of the compounds were synthesized by solid phase methods, as described hereinabove. The polyamide was synthesized first, and then conjugated by conventional means to each of the eight linkers, which was then conjugated (by conventional means) to the peptide. Care was taken to ensure that the tyrosine residue was not racemized, and that the tryptophan was not oxidized. The compounds were confirmed by MALDI-TOF mass spectrometery (data not shown).

Row | Substance | solubility
1 | Linker 6: Example 7 polyamide-FYPWM conjugate with linker 6, no lysine residue (N-methyl) | less soluble
2 | Linker 7: Example 7 polyamide-FYPWM conjugate with linker 7, no lysine residue (N-methyl) | less soluble
